Reference: ChEMBL document CHEMBL1126647, “Fluorine-18-labeled progestin ketals: synthesis and target tissue uptake selectivity of potential imaging agents for receptor-positive breast tumors” (J Med Chem, 1993)

Test: Partition coefficient (logP)
Type: physicochemical
Conditions: octanol/water

CC(=O)[C@H]1CC[C@H]2[C@@H]3CCC4=CC(=O)CC[C@]4(C)[C@H]3CC[C@]12C [PROGESTERONE]
logP: 3.87
